Target: full-length human PKCι (Homo sapiens, UniProt P41743)
Assay: PKCι IC50 IMAP fluorescence polarisation assay, full-length enzyme
Settings: read-out: IC50 in IMAP assay against full length PKCi; full length PKCi at 15 μM ATP

The chains behind the UniProt entries cited, without tags or fusion partners.
UniProt P41743, whole entry: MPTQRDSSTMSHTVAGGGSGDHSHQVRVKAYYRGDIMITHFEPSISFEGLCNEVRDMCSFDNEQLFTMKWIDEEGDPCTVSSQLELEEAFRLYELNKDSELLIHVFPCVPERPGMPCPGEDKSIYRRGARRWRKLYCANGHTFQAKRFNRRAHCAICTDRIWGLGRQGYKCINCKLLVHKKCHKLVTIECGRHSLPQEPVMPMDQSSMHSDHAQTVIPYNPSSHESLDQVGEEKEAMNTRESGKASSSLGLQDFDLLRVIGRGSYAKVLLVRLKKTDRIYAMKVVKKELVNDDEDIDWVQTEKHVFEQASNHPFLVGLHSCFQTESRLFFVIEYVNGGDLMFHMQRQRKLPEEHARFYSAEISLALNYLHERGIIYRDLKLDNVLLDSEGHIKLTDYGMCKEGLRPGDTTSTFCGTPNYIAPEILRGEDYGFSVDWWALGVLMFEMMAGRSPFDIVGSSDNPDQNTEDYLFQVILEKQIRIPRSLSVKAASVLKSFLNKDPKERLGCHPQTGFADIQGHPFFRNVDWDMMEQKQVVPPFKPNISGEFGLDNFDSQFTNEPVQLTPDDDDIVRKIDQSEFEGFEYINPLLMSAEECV

## N[C@H](CNc1nc(-c2ccncc2)nc2c(/C=C/C(=O)O)csc12)Cc1ccccc1
  IC50: 100 to 1000 nM
